The test system of test [1] is SKOV3 target cells. Briefly: anti-HER2 ADCC assay, nanoluciferase release method. In kind it is cell-based.
The test system of test [2] is SKOV3 target cells. Briefly: anti-HER2 ADCC assay, 51Cr release method. In kind it is cell-based. On the procedure: The nanoluciferase method was compared to the ^51Cr method in an anti-HER2 ADCC assay. For this, SKOV3 cells stably expressing nanoluciferase were or were not labeled with ^51Cr and were used simultaneously in an ADCC assay under the same experimental conditions, according to the same principle as that described in example 4.
SKOV3 target cells transformed to stably express nanoluciferase were incubated or not incubated for 1 hour in a saline solution of Na2CrO4 (Perkin Elmer, France), equivalent to 100 μCi of ^51Cr per million cells, then washed 4 times with RPMI-1640, 10% FCS and counted.
At the end of the 4-hour incubation, 25 μl of supernatant of each condition are recovered, the cytolysis is measured and the percentage of specific lysis is calculated according to modes strictly identical to those described in example 4.
The mean percentages of specific lysis obtained by the two methods in the three experiments and also the associated modelings are shown in FIG. 17. Here again, the two methods give very similar results, with a dispersion of the values which seems to be less for the nanoluciferase method.

Setting [3] is: mean±SD, 4 h, CD16 T lymphocyte effectors.
Where [4] appears, read: standard range, mean±SD of 3 experiments.

Broadly, the Emax is the greatest response seen or fitted, relative to the assay's reference. Turning to trastuzumab, the mean potency came to 69.3±7.9% in test [1] (80% range, mean±SD); 136.9±19.4% in test [1] (125% range, mean±SD); 82.9±13.0% in test [2] (80% range, mean±SD); 154.2±24.8% in test [2] (125% range, mean±SD). For the same substance, the maximal effect (Emax) in test [1] (setting [3]) turned out to be 34.1±4.3%; in test [2] (setting [3]) it was 41.3±4.3%. For the same substance, the “mean EC50” value is 0.1816 ± 0.008 µg/mL in test [1] (setting [4]) and 0.4025 ± 0.1725 µg/mL in test [2] (setting [4]). This substance also gave an Emin in test [2] (setting [3]) of 0.5±2.2%.

For the origin of these results see patent US20180051317A1, “NON-RADIOACTIVE METHOD FOR DETERMINING THE CYTOLITIC ACTIVITY OF AN AGENT WITH RESPECT TO TARGET CELLS, USE THEREOF AND ASSOCIATED KIT” (CLEAN CELLS, priority 2015, published 2018).
